# Tested on: MDA-MB-231 tumor
# Test: In vivo near-infrared fluorescence imaging (tumor about 3 mm)
# Design: species or system nude mouse
# Settings: 3 h after tail vein injection
# Procedure: Human H-subunit magnetoferritin is labeled with near-infrared fluorescent stain Cy5.5 (that is, Cy5.5 is linked to human H-subunit magnetoferritin by covalent bonds), and thus becomes a tumor targeted fluorescent molecular probe. When MDA-MB-231 tumor grows to about 3 mm, human H-subunit magnetoferritins labeled with Cy5.5 are injected through tail vein, and then scanned with in vivo fluorescence imaging system CRI Metro™ to observe its relative in vivo distribution. FIG. 11 is the in vivo fluorescence image 3 h after human H-subunit magnetoferritins are injected.
substance,measurement,value
human H-subunit magnetoferritin labeled with Cy5.5,in vivo fluorescence in the tumor area,relatively strong fluorescent intensity distributed in the tumor area

# — patent US20150093335A1, “CELL-TARGETED MAGNETIC NANO-MATERIAL AND BIOMEDICAL USES THEREOF” (Institute of Geology and Geophysics, Chinese Academy of …, priority 2012, published 2015)
